# Ab-95 light chain CDR variants: yeast mating affinities

Antigen: PDVDLGDISGINAS, a 14-residue peptide of the SARS-CoV-2 spike HR2 region.

Each scFv is VH, a 15-residue (Gly4Ser)3 linker, VL, as in the parent Ab-95, and differs from it in the CDRs of the light chain only.
VH: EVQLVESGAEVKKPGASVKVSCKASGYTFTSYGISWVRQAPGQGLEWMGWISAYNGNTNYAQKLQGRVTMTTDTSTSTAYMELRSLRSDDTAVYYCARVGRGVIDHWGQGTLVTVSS
VL: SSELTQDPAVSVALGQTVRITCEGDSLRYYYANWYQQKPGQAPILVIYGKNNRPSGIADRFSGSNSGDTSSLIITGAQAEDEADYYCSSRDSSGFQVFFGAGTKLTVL

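Library AAYL52 holds single substitutions and randomly drawn double and triple substitutions in the CDRs. In AlphaSeq, yeast of one mating type display the scFv and yeast of the other type display the target. Binding brings cells together so that they mate, and sequencing counts the barcode pairs among the diploids. A regression on co-assayed BCL2-family reference pairs converts the normalised counts of each replicate to an apparent Kd. Mating was done three times.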

The parent's light chain CDRs are EGDSLRYYYAN, GKNNRPS, SSRDSSGFQVF; each variant's own CDRs replace them letter for letter.
Scale: log10 of Kd in nM, estimated from mating counts; low values are strong binders.
Replicates are averaged; those with no signal do not enter the mean.
Where no diploid with the target was found in any replicate, the entry reads "no signal": below detection, most likely a poor binder, though not proof of it.
Background: pairings of library AAYL52 with three empty control strains gave a value in 28% of cases (median 3.91, 5th percentile 2.90). Values in that range, when seen in few replicates, are hard to tell from nonspecific mating. Also given: how often the same scFv was detected with the empty control strains.
Parent in this assay: reference entry 2.31, copy in this library 2.25.

| CDR-L1 | CDR-L2 | CDR-L3 | log10 Kd (nM), mean | replicates with signal | empty controls |
|---|---|---|---|---|---|
| EGDSFRYYNAN | GKNNRPS | SSRDSSGFQQF | 4.22 | 1 of 3 | 1 of 9 |
| EWDSLRMYYAN | GKNNRPS | SSRDSSGFNVF | 4.39 | 2 of 3 | 3 of 9 |
| EGDSLRYYKAN | GKNNRPS | SRRGSSGFQVF | 3.36 | 1 of 3 | 1 of 9 |
| EGDSVRYYYAN | GQNNRPS | CSRDSSGFQVF | 3.19 | 2 of 3 | 2 of 9 |
| EGDKLRYYYAN | GMNNRPS | SSRDSSGFRVF | 3.10 | 1 of 3 | 4 of 9 |
| EGDSNRYYYAN | GKNNRPS | SSNDSSGFQVF | 3.35 | 2 of 3 | 2 of 9 |
| EGDSLMYYYAN | GKNNKPS | SSRDSSGFQVF | 2.74 | 3 of 3 | 3 of 9 |
| EGDSLRYYYAN | GKNNRPS | SSKDSKGFIVF | 2.49 | 3 of 3 | 2 of 9 |
| EFDSLKYYYAN | GKNNRPS | SSRDSSIFQVF | 3.52 | 3 of 3 | 1 of 9 |
| EGDSLRYYVAN | GKNNCMS | SSRDSSGFQVF | no signal | 0 of 3 | 0 of 9 |
| EGDWLRYYYAN | GKNNKPS | SSRDSYGFQVF | 4.89 | 2 of 3 | 0 of 9 |
| EGDSLRYYYAN | GKNNRPS | QSRDPSGFQVF | 2.38 | 3 of 3 | 2 of 9 |
| EGDSLRYYYAN | GINKRPS | SSRDSSTFQVF | no signal | 0 of 3 | 1 of 9 |
| EGDSLRYYYAN | GKNNRPS | SSRKSSLFQVY | no signal | 0 of 3 | 0 of 9 |
| EGDSKRYYYAN | GKNNKPS | SYRDSSGFQVF | 5.35 | 1 of 3 | 2 of 9 |
| EGDSLRYYYAN | GKFNRPS | SSMRSSGFQVF | 3.58 | 2 of 3 | 4 of 9 |
| EGDALRYYYAN | GKNNRPS | SSRESSGFQVA | 3.36 | 3 of 3 | 4 of 9 |
| EGSHLRYYYAN | GKNNRPS | SSRDSSGFQVF | 1.90 | 3 of 3 | 4 of 9 |
| EGDSLRHYYAN | GRNNRPS | SLRDSSGFQVF | 3.46 | 3 of 3 | 5 of 9 |
| EGDSLRYYKAL | GKNNRPS | SSRDSSGFWVF | 4.46 | 1 of 3 | 7 of 9 |
| EGDSLRYYYAN | GKLNRRS | SSRGSSGFQVF | 5.11 | 1 of 3 | 1 of 9 |
| EGDSLRYYFAN | GKNNRPS | SSRDSSGFQTF | 3.07 | 3 of 3 | 5 of 9 |
| EGDSLRYYYAN | GWNNRPS | SSRHSSGFQVF | 4.01 | 3 of 3 | 0 of 9 |
| EGDSLRQYYAC | GKNNRPS | SSRDSAGFQVF | 3.83 | 1 of 3 | 2 of 9 |
| EGDSWRYYYAN | GKNNRPS | SSLDSSGFQVF | 3.61 | 1 of 3 | 3 of 9 |
| EGDSLIYYYAN | GKNNRPS | YSRDWSGFQVF | 3.81 | 3 of 3 | 6 of 9 |
| EGDSLRYYYAN | GKNNMPS | ALRDSSGFQVF | 3.62 | 1 of 3 | 2 of 9 |
| EGDSLVYYYAN | GKNNRSS | SSRSSSGFQVF | 3.15 | 2 of 3 | 2 of 9 |
| EGHSLRYYYAN | GKPNRPS | SSRDSTGFQVF | 3.34 | 2 of 3 | 0 of 9 |
| EVDSVRYYYAN | GKNNRLS | SSRDSSGFQVF | 3.00 | 3 of 3 | 4 of 9 |
| EGDSLRYYYAN | GKNNRPF | SSRDASGVQVF | 2.90 | 3 of 3 | 2 of 9 |
| EGDSLRHYYGN | GKNNRPS | SSRDSSGFQVF | 3.26 | 3 of 3 | 0 of 9 |
| EGDSLRGYYAN | GKNNRPS | SSRDSSGFQIP | 3.56 | 3 of 3 | 2 of 9 |
| EGDSLRYYYAN | GKNNRPS | SFRDSSVFEVF | 4.05 | 1 of 3 | 2 of 9 |
| EGDSLRYYYAN | GKNHRPT | SSRDSSGFQVF | 2.83 | 3 of 3 | 3 of 9 |
| EGDWLRMYYAN | FKNNRPS | SSRDSSGFQVF | 4.07 | 3 of 3 | 3 of 9 |
| DGDSLYYAYAN | GKNNRPS | SSRDSSGFQVF | 1.91 | 3 of 3 | 5 of 9 |
| EGDSLMYYYAN | EKNNRGS | SSRDSSGFQVF | 2.90 | 3 of 3 | 0 of 9 |
| ELDSLRYYPAN | GKNNRPS | SSRDHSGFQVF | 2.77 | 3 of 3 | 4 of 9 |
| EGDSFRYFYAN | GKNNRPS | SSRDSSGFQMF | no signal | 0 of 3 | 3 of 9 |
| HGGSLRYYYAN | GKNNRPS | SSRDFSGFQVF | 2.92 | 3 of 3 | 3 of 9 |
| EGDSLRYYYAN | GKNNRPH | SSRGSSGFQVF | 3.20 | 3 of 3 | 6 of 9 |
| EGDSLRYIYAF | GKNNRPS | SVRDSSGFQVF | 3.85 | 1 of 3 | 0 of 9 |
| EGKSLRGYYAN | GKNNRPS | SSRDDSGFQVF | 1.21 | 3 of 3 | 0 of 9 |
| EGDSLRYYYAN | WKRNRGS | SSRDSSGFQVF | 3.96 | 2 of 3 | 4 of 9 |
| EGQSLCYYLAN | GKNNRPS | SSRDSSGFQVF | 2.59 | 3 of 3 | 6 of 9 |
| EGDSSRYYYAI | GKNNRPS | SSRDSSGFQLF | 4.53 | 2 of 3 | 2 of 9 |
| EGDSLRYEYAN | GKRNRPS | SSRDSSGAQVF | 2.97 | 3 of 3 | 6 of 9 |
| EGDSLRYYYAN | GKNNRPS | SSRDSSLPQNF | 3.85 | 2 of 3 | 1 of 9 |
| EGDSLRYYYCN | GKNNRPS | SSRDCSLFQVF | 3.19 | 3 of 3 | 2 of 9 |
| EGDSLRYYYAN | GNENRPH | SSRDSSGFQVF | 2.22 | 3 of 3 | 5 of 9 |
| EGDSLRYYYHN | GLNNRPT | SSRDSSGFQVF | 2.91 | 1 of 3 | 2 of 9 |
| EFDSLRYYYAN | GKNNRPT | SSRDSSKFQVF | 4.55 | 1 of 3 | 0 of 9 |
| EGDSLRGYYCW | GKNNRPS | SSRDSSGFQVF | no signal | 0 of 3 | 1 of 9 |
| EGDSLSYYYWN | GKNTRPS | SSRDSSGFQVF | 1.94 | 3 of 3 | 2 of 9 |
| EGDSLRYYTAN | GKNNRPS | SSRKGSGFQVF | no signal | 0 of 3 | 3 of 9 |
| EGDSFRYYYAN | GKNNRPS | FSRDSSGFQQF | no signal | 0 of 3 | 1 of 9 |
| EGDSLRYYYAN | GFNNRPS | SSRDSSLFEVF | 4.57 | 2 of 3 | 0 of 9 |
| EGDSLRYYYAN | GKNNRPS | SSRDSEYFQSF | 2.17 | 3 of 3 | 1 of 9 |
| EGDSLSYYYAY | GKNNRPS | SSRDSSGFQDF | 3.78 | 1 of 3 | 2 of 9 |
| EGDSLRYYYAN | MKNNRPS | SSRRSSGFQCF | 3.61 | 3 of 3 | 6 of 9 |
| EGDSLRYYYAN | LKNQRSS | SSRDSSGFQVF | 4.26 | 1 of 3 | 0 of 9 |
| EGDIERYYYAN | GKNNRPS | SSRDSSGFQVF | 3.34 | 2 of 3 | 1 of 9 |
| EGDSLRYYYAN | GKNNRPS | SSRSLSGFQWF | 2.77 | 3 of 3 | 2 of 9 |
| EGDSLRYYYAN | GKNIRPS | SSDKSSGFQVF | 4.44 | 3 of 3 | 4 of 9 |
| EGDSLRYYYAN | GKGSNPS | SSRDSSGFQVF | 3.81 | 3 of 3 | 1 of 9 |

The 8 strongest on average among those seen in every replicate, once more:

| CDR-L1 | CDR-L2 | CDR-L3 | log10 Kd (nM), mean | replicates with signal | empty controls |
|---|---|---|---|---|---|
| EGKSLRGYYAN | GKNNRPS | SSRDDSGFQVF | 1.21 | 3 of 3 | 0 of 9 |
| EGSHLRYYYAN | GKNNRPS | SSRDSSGFQVF | 1.90 | 3 of 3 | 4 of 9 |
| DGDSLYYAYAN | GKNNRPS | SSRDSSGFQVF | 1.91 | 3 of 3 | 5 of 9 |
| EGDSLSYYYWN | GKNTRPS | SSRDSSGFQVF | 1.94 | 3 of 3 | 2 of 9 |
| EGDSLRYYYAN | GKNNRPS | SSRDSEYFQSF | 2.17 | 3 of 3 | 1 of 9 |
| EGDSLRYYYAN | GNENRPH | SSRDSSGFQVF | 2.22 | 3 of 3 | 5 of 9 |
| EGDSLRYYYAN | GKNNRPS | QSRDPSGFQVF | 2.38 | 3 of 3 | 2 of 9 |
| EGDSLRYYYAN | GKNNRPS | SSKDSKGFIVF | 2.49 | 3 of 3 | 2 of 9 |

From the AlphaSeq antibody data of Engelhart et al. 2022 (doi:10.1038/s41597-022-01779-4), copy in the FLAb collection.